The results in this text go back to article PMC4158421, “Screening-based discovery of Aspergillus fumigatus plant-type chitinase inhibitors” (Febs Letters, 2014).

Amino acid sequences for entries named in this document (tags omitted). Residues count along the entry.
UniProt P29029, 21-562 limits assumed: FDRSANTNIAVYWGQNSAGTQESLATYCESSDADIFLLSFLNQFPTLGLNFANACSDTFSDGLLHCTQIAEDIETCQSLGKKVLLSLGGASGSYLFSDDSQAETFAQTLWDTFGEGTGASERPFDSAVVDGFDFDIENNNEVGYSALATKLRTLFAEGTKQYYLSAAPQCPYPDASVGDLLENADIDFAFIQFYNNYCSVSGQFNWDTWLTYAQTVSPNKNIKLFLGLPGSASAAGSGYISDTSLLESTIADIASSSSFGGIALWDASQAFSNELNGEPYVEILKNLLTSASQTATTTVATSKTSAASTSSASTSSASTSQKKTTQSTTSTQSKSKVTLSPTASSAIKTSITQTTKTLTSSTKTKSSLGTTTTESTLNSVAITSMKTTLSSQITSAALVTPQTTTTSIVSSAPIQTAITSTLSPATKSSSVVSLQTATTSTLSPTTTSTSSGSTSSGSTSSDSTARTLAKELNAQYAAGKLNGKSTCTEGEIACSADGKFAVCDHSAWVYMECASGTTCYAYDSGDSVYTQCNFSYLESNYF
UniProt Q13231, 22-466 limits assumed: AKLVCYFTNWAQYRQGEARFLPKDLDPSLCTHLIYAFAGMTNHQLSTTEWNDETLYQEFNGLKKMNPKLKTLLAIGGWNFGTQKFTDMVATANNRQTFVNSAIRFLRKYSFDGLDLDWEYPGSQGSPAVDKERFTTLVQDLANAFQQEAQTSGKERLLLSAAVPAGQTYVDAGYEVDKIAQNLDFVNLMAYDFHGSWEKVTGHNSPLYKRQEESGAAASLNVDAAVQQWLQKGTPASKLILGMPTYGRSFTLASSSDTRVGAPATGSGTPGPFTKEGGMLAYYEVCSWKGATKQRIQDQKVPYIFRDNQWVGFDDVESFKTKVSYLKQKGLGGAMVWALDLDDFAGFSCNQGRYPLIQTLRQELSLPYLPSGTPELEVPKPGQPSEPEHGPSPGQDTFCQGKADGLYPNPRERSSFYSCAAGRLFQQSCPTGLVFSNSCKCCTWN
UniProt Q9BZP6, 22-476 limits assumed: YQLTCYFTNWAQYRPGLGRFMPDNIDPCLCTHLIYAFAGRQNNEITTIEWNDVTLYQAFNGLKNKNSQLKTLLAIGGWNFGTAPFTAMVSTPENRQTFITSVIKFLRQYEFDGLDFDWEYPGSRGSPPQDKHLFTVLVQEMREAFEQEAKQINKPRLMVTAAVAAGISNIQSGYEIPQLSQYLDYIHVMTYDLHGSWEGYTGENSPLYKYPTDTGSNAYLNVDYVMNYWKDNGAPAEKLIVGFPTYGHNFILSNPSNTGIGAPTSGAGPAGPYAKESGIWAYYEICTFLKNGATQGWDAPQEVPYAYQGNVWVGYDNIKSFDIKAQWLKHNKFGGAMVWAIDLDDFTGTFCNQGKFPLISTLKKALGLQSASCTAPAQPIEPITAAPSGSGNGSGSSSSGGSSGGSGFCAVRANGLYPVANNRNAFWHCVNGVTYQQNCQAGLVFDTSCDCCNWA

What all share (assay type): biochemical
In test [1] the target is S. cerevisiae CTS1 (ScCTS1) (Saccharomyces cerevisiae, UniProt P29029). The experiment in a line: Counter screening assay against ScCTS1. As to conditions: for IC50: read-out: GH18 family chitinase IC50, plant-type, ScCTS1.
Test [2] has as its target Homo sapiens chitinase 1/chitotriosidase (HsCHT) (Homo sapiens, UniProt Q13231). The experiment in a line: Counter screening assay against HsCHT. As to conditions: for IC50: read-out: GH18 family chitinase IC50, bacterial-type, HsCHT, substrate 4MU-NAG2. The protocol:
Counter screening assays to determine an IC50 against other GH18 family chitinases included S. cerevisiae CTS1 (ScCTS1, model plant-type chitinase) and three bacterial-type chitinases (A. fumigatus chitinase B1 [AfChiB], acidic mammalian chitinase [AMCase] and Homo sapiens chitinase 1/chitotriosidase [HsCHT]). Assays were performed as per AfChiA1 with the following modifications, [29]. Bacterial-type chitinases (AfChiB, AMCase and HsCHT) utilised 4-methylumbelliferyl β-D-N-N-diacetylchitobioside (4MU-NAG2) as a substrate and for these pentoxifylline (Sigma) was used as a control inhibitor [30]. Substrate concentrations for IC50 determinations were selected according to the published Km values for each enzyme, [29], [31], [32]. The mode of inhibition was established by Lineweaver–Burk plots of steady-state kinetics with 50 μM to 1 mM of 4MU-GlcNAc3 in the presence of different concentrations of selected compounds [23].
Background: Counterscreens check selectivity or assay interference.

The target of test [3] is acidic mammalian chitinase (AMCase) (Homo sapiens, UniProt Q9BZP6). Briefly: Counter screening assay against AMCase. As to conditions: read-out: GH18 family chitinase IC50, bacterial-type, AMCase; substrate 4MU-NAG2.

With `CSc1ccc(C2C(C#N)=C(N)Oc3nc(C)[nH]c(=O)c32)cc1` (stereo not shown), the IC50 – broadly, the point on the concentration scale where inhibition reaches its midpoint – in test [1] is > 100 µM.

Take `CCc1nnc(NC(=O)c2sc3nccc(COC)c3c2N)s1`: the IC50 in test [1] was > 100 µM.

Regarding `Cc1nc2scc(-c3ccccc3)c2c(=O)[nH]1`, the 50% inhibitory concentration (IC50) in test [1] is 16.1 µM; in test [2] it was > 100 µM; in test [3], 13.6 µM.

Consider `NC1=C(c2nc3ccccc3[nH]2)C(=O)CN1CCc1ccccc1`, for which, in test [1], the IC50 is > 100 µM.

On to `COc1ccccc1-c1noc2nc(C)[nH]c(=O)c12`, for which the “fold greater potency against ScCTS1 compared to AfChiA1” value in test [1] is reported as 5 fold. In test [2], the “activity against HsCHT” value is “no activity”. For the same molecule, the IC50 in test [3] stood at 9.8 µM.

Regarding `Cc1nn(C)cc1C(=O)Nc1ccc(Cl)cc1`, the IC50 in test [1] is > 100 µM.

Regarding `Cc1c(C(=O)N2CCN(CCc3ccccc3)CC2)oc2ccccc12`, the IC50 is 63 µM in test [1], > 100 µM in test [2] and > 100 µM in test [3].
